Patent publication EP4732851A9, “LINKER, ANTIBODY-DRUG CONJUGATE, AND PREPARATION METHOD THEREFOR” (Fudan University, priority 2024, dated 2025)

Legend:
NCI-N87 cells = assay: NCI-N87 nude mouse xenograft model; format: in vivo, Balb/c nude; settings: 5 mg/kg via tail vein, two doses (day 16 and day 23); compared to hIgG1-vc-MMAE control group
Method: Referring to the in vivo efficacy assay method in Example 11, 200 µL of a suspension containing 5×10^6 NCI-N87 cells in PBS and Matrigel (PBS:standard concentration Matrigel = 1:1) was inoculated subcutaneously into the flank of female nude mice (Balb/c nude, 5-6 weeks old). When the tumor volume reached approximately 400 mm^3 (day 16), the mice were randomly grouped (n=8) based on tumor volume and body weight. Doses of 5 mg/kg T-Dxd (DAR=8) and 5 mg/kg 1-G07-LP5 (DAR=3.4) were administered via tail vein injection for a total of two doses (on day 16 and day 23), with hIgG1-vc-MMAE set as the negative control. […] The difference in efficacy between the two groups was statistically significant (p < 0.05).

NCI-N87-luc cells = assay: NCI-N87 intracranial model; format: in vivo, Balb/c nude mice; settings: 5 mg/kg via tail vein, 2 doses one week apart; compared to vehicle group
Method: An NCI-N87 intracranial model was established to evaluate 1-G07-LP5. NCI-N87-luc cells were resuspended in PBS and adjusted to a concentration of 1×10^8/mL. A microsyringe was used to draw 5 µL of the cell suspension (5×10^5 cells) for inoculation. Female Balb/c nude mice aged 6-7 weeks were anesthetized with Avertin and fixed on a brain stereotaxic instrument. Using the mouse's bregma as the center, the microsyringe needle was moved 2 mm to the right and 0.6 mm upward. After drilling through the skull with a triangular needle, the needle was inserted 4 mm downward, then withdrawn 1 mm, and the tumor cells were injected at a constant speed. The burr hole was sealed with bone wax, and finally the scalp was sutured. 9 days later, D-luciferin (150 mg/kg) was injected intraperitoneally, and fluorescence images were acquired using a small animal fluorescence/CT in vivo imaging system to quantify the brain fluorescence signal intensity. Grouping was based on fluorescence signal intensity (Radiance (p/sec/cm^2/sr)) and mouse body weight. Vehicle control, 5 mg/kg 1-G07-LP5, and 5 mg/kg T-Dxd groups were set up. […] Fluorescence images were acquired every 1-2 weeks using the small animal fluorescence/CT in vivo imaging system to monitor brain fluorescence signal intensity (Radiance (p/sec/cm^2/sr)) and mouse body weight, and tumor growth curves were plotted.

trastuzumab deruxtecan [T-Dxd] was tested, and the tumor growth (NCI-N87 cells) was “inhibited tumor growth” and the “intracranial tumor growth (brain fluorescence signal)” value (NCI-N87-luc cells) was “completely inhibited intracranial tumor growth”.
